In patent US5175163A, “Triazolyl thioamide derivates” (Egis Gyogyszergyar, priority 1989, dated 1992):

Test system: pentetrazole spasm
Assay: Inhibition of pentetrazole spasm
Assay type: in vivo
Settings: white mice, Table III

CN1C(=O)OC(C)(C)C1=O [Trimethadion, reference compound]
Therapeutical index: 4.3
